From patent US20230265157A1, “MHC MULTIMER EXPRESSION CONSTRUCTS AND USES THEREOF” (priority 2020, published 2023)

Tested on: WT-1-specific T cells
Assay: Specific cell staining / titration on WT-1-specific T cells
Assay type: cell-based
Conditions: 30× or 100× excess of peptide
Description: A Y84A variant of the A*02:01 tetramer (shown schematically in FIG. 9A) was produced, digested and subjected to WT-1 peptide exchange as shown in Examples 4 and 5. The amino acid sequence of the Y84A HLA alpha chain is shown in SEQ ID NO: 321. This mutation is known in the art to stabilize binding of the tethered peptide by reducing steric conflict with the peptide linker.

## WT1 peptide: A*02:01 tetramers digested and exchanged with WT-1 peptide RMFPNAPYL (SEQ ID NO: 9)
  binding to WT-1-specific T cells: strong and specific binding
